Earlier results on one substance are cited in publication PMC13507575.

For the data set, the target named is IL-1β (Homo sapiens) (UniProt P01584).

Consider gevokizumab, for which the equilibrium dissociation constant (Kd) (commonly the equilibrium constant for the complex coming apart) was 0.29 nM.
